Source: US7538233B2, “Coumarins as iNOS inhibitors” (Aventis Pharmaceuticals Inc., priority 2003, dated 2009)

Test system: N=C(N)NCCC[C@H](N)C(=O)O
Experiment: purified protein, by the assay type
Conditions: 37.0 °C

Substance: Human NOS-2 (Homo sapiens)
- Km (other: human NOS-2, estimated average): 2.38 (±1.5) μM

Substance: Murine NOS-2 (iNOS) (Mus musculus)
- Km (other: murine NOS-2, estimated average): 13.6 (±2.8) μM
